Measurements as given in patent US20050197338A1, “Substituted pyrazole urea compounds for the treatment of inflammation” (priority 2003, published 2005).

Protein sequences, listed by entry. Tags and fused reporters are not part of them.
UniProt O14920, whole entry: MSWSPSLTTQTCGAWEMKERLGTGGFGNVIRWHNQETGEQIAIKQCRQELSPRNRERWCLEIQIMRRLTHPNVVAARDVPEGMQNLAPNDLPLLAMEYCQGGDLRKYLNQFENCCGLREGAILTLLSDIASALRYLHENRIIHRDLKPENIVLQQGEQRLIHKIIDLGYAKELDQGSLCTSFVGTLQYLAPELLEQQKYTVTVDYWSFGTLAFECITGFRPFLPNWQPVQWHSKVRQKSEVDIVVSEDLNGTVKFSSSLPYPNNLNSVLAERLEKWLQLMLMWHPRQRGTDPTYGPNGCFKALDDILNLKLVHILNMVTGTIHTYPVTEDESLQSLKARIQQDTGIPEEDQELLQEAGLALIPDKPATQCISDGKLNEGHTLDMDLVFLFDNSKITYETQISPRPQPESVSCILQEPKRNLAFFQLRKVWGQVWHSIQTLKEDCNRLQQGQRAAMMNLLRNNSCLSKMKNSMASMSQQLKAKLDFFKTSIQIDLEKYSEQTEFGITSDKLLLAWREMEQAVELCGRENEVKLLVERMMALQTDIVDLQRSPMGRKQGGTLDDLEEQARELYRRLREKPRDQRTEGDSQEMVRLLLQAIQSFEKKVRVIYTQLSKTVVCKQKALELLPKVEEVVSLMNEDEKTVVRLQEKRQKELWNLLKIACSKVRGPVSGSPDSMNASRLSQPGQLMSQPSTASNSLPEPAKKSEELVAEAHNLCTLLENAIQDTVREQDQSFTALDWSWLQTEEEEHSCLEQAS

Target: human IKK-2 (rhIKK-2 homodimer) (Homo sapiens, UniProt O14920)
Test: IKK-2 Resin Enzyme Assay (Human IKK-2 Enzyme Assay)
Assay type: biochemical
Details: read-out: IC50 (μM) hIKK-2; human IKK-2, resin enzyme assay
Text: Materials: SAM^2™96 Biotin capture plates were from Promega. Anti-FLAG affinity resin, FLAG-peptide, NP-40 (Nonidet P-40), BSA, ATP, ADP, AMP, LPS (E. coli serotype 0111:B4), and dithiothreitol were obtained from Sigma Chemicals. Antibodies specific for NEMO (IKK-γ) (FL-419), IKK-1 (H-744), IKK-2(H-470) and IκBa(C-21) were purchased from Santa Cruz Biotechnology. Ni-NTA resin was purchased from Qiagen. Peptides were purchased from American Peptide Company. Protease inhibitor cocktail tablets were from Boehringer Mannheim. Sephacryl S-300 column was from Pharmacia LKB Biotechnology. Centriprep-10 concentrators with a molecular weight cutoff of 10 kDa and membranes with molecular weight cut-off of 30 kDa were obtained from Amicon. [γ-^33P] ATP (2500 Ci/mmol) and [γ-^32P] ATP (6000 Ci/mmol) were purchased from Amersham. The other reagents used were of the highest grade commercially available.
Cloning and Expression: cDNAs of human IKK-1 and IKK-2 were amplified by reverse transcriptase-polymerase chain reaction from human placental RNA (Clonetech). hlKK-1 was subcloned into pFastBac HTa (Life Technologies) and expressed as N-terminal His6-tagged fusion protein. The hlKK-2 cDNA was amplified using a reverse oligonucleotide primer which incorporated the peptide sequence for a FLAG-epitope tag at the C-terminus of the IKK-2 coding region (DYKDDDDKD). The hlKK-2:FLAG cDNA was subcloned into the baculovirus vector pFastBac. The rhIKK-2 ([…]) mutant was constructed in the same vector used for wild type rhIKK-2 using a QuikChange™ mutagenesis kit (Stratagene). Viral stocks of each construct were used to infect insect cells grown in 40 L suspension culture. […] Cell lysates were stored at −80° C. until purification of the recombinant proteins was undertaken as described below.
Enzyme Isolation: All purification procedures were carried out at 4° C. unless otherwise noted. Buffers used are: buffer A: 20 mM Tris-HCl, pH 7.6, containing 50 mM NaCl, 20 mM NaF, 20 mM β-Glycerophosphate, 500 μM sodium orthovanadate, 2.5 mM metabisulfite, 5 mM benzamidine, 1 mM EDTA, 0.5 mM EGTA, 10% glycerol, 1 mM DTT, 1× Complete™ protease inhibitors; buffer B: same as buffer A, except 150 mM NaCl, and buffer C: same as buffer A, except 500 mM NaCl.
Isolation of rhIKK-2 homodimer: A 10-liter culture of baculovirus-expressing IKK-2 tagged with FLAG peptide was centrifuged and the cell pellet (MOI=0.1 and 1=72 h) was re-suspended in buffer A. These cells were microfluidized, and centrifuged at 100,000×g for 45 min. Supernatant was passed over a G-25 column equilibrated with Buffer A. Protein peak was collected and incubated with anti-FLAG affinity resin on a rotator overnight in buffer B. The resin was washed in batch with 10-15 bed volumes of buffer C. Washed resin was poured into a column and rhIKK-2 homodimer was eluted using 5 bed volumes of buffer B containing FLAG peptide. 5 mM DTT, 0.1% NP-40 and BSA (concentrated to 0.1% in final amount) was added to the eluted enzyme before concentrating in using an Amicon membrane with a molecular weight cut-off of 30 kDa. Enzyme was aliquoted and stored at −80° C.
IKK-2 Resin Enzyme Assay: IKK-2 kinase activity was measured using a biotinylated IκBα peptide (Gly-Leu-Lys-Lys-Glu-Arg-Leu-Leu-Asp-Asp-Arg-His-Asp-Ser32-Gly-Leu-Asp-Ser36-Met-Lys-Asp-Glu-Glu) (American Peptide Co.). 20 μL of the standard reaction mixture contained 5 μM biotinylated IκBα peptide, 0.1 μCi/reaction [γ-^33P] ATP (Amersham) (about 1×10^5 cpm), 1 μM ATP (Sigma), 1 mM DTT (Sigma), 2 mM MgCl2 (Sigma), 2 mM MnCl2 (Sigma), 10 mM NaF (Sigma), 25 mM Hepes (Sigma) buffer, pH 7.6 and 20 μL enzyme solution and 10 μL inhibitor in a final volume of 50 μL. After incubation at 25° C. for 30 min, 150 μL resin (Dowex anion-exchange resin AG1X8 200-400 mesh) in 900 mM formate, pH 3.0 was added to each well to stop the reaction. Resin was allowed to settle for 1 h and 50 μL of supernatant was removed to a Micolite-2 flat bottom plate (Dynex). […]

SMILES | IC50
Cc1cc(F)ccc1-c1ccc(-n2cc(NC(N)=O)c(C(N)=O)n2)cc1 | 0.947 µM
COc1ccc(F)cc1-c1ccc(-n2cc(NC(N)=O)c(C(N)=O)n2)cc1 | 0.385 µM
COc1ccc(-c2ccc(-n3cc(NC(N)=O)c(C(N)=O)n3)cc2)cc1F | 6.99 µM
NC(=O)Nc1cn(-c2ccc(-c3cc(F)cc(F)c3)cc2)nc1C(N)=O | 5.81 µM
COc1ccccc1-c1ccc(-n2cc(NC(N)=O)c(C(N)=O)n2)cc1 | 1.06 µM
NC(=O)Nc1cn(-c2ccc(-c3cccc(Cl)c3)cc2)nc1C(N)=O | 4.38 µM
NC(=O)Nc1cn(-c2ccc(-c3ccc(F)c(Cl)c3)cc2)nc1C(N)=O | 3.95 µM
CNC(=O)Nc1cn(-c2ccc(-c3ccc(C(N)=O)cc3)cc2)nc1C(N)=O | 2.68 µM
NC(=O)Nc1cn(-c2ccc(-c3ccccc3Cl)cc2)nc1C(N)=O | 0.743 µM
N#CCOc1cccc(-c2cccc(-n3cc(NC(N)=O)c(C(N)=O)n3)c2)c1 | 1.99 µM
NC(=O)Nc1cn(-c2ccc(-c3cccc4ccccc34)cc2)nc1C(N)=O | 7.41 µM
N#CCOc1ccc(-c2cccc(-n3cc(NC(N)=O)c(C(N)=O)n3)c2)cc1 | 1.02 µM
NC(=O)Nc1cn(-c2ccc(-c3cccc(-c4ccccc4)c3)cc2)nc1C(N)=O | 7.82 µM
NC(=O)Nc1cn(-c2cccc(-c3cccc(F)c3)c2)nc1C(N)=O | 7.59 µM
NC(=O)Nc1cn(-c2ccc3[nH]ccc3c2)nc1C(N)=O | 0.383 µM
